Usually pKd stands for the negative decadic logarithm of the Kd, by convention in mol/L.

By UniProt entry, the sequences of proteins in these tests, tags left out. Chains listed by the source or under a name are the forms on record and can include a tag or linker.
UniProt Q99523, with tags, fused parts or gaps V650M: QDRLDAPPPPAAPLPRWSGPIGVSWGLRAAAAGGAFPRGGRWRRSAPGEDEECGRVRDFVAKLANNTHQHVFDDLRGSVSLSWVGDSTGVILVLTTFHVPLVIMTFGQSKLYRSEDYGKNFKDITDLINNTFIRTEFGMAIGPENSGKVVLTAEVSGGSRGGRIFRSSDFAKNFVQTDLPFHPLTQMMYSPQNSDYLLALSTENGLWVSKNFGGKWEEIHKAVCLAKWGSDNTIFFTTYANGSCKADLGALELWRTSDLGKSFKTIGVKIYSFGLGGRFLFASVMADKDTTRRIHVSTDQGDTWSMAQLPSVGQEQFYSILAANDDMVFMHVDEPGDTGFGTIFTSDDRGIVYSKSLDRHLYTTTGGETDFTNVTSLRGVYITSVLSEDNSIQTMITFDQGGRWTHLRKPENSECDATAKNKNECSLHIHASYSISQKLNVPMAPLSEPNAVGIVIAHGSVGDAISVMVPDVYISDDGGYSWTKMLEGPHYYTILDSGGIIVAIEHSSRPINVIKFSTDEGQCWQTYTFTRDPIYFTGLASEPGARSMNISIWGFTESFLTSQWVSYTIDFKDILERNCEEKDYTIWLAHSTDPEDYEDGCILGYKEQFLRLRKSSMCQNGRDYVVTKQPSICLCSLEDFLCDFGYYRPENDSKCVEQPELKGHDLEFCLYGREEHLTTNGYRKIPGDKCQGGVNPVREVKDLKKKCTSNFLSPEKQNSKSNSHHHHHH

pKd: −log10 of the molar value.

The assay addresses T1, soluble ectodomain of sortilin-6his (Homo sapiens, UniProt Q99523, V650M).
T1 construct: the soluble ectodomain of sortilin-6his is measured by microscale thermophoresis (MST)
Nature of the assay: MST binding to soluble ectodomain of sortilin-6his. The following applies: Table 3, monofunctional peptides, read-out: KD score, binding to sortilin (Kd).

Consider `CC(C)C[C@H](NC(=O)[C@H](CC(C)C)NC(=O)[C@H](CCC(N)=O)NC(=O)[C@@H](N)CC(C)C)C(=O)O` [compound 40], for which the pKd is 5.60 to 6.60.

The record behind these values is US20250345446A1 (Draupnir Bio ApS, priority 2022, published 2025).
